T1: mouse TREM2 on BWZ cells (mouse, UniProt Q99NH8 19-227)
T1 construct: whole, on cells; also called BWZ Mouse TREM2
T1 sequence (looked up): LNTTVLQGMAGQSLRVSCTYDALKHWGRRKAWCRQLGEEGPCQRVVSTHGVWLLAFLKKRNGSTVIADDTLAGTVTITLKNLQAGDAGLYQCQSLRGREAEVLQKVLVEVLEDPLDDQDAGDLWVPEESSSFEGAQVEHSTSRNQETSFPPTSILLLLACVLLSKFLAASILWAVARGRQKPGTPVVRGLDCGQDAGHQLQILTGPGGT

The chains behind the UniProt entries cited, without tags or fusion partners. A line that says so, or that is headed by a name, gives the form on record, which may keep a tag or linker. Residues count along the entry.
UniProt Q9NP99, 21-234: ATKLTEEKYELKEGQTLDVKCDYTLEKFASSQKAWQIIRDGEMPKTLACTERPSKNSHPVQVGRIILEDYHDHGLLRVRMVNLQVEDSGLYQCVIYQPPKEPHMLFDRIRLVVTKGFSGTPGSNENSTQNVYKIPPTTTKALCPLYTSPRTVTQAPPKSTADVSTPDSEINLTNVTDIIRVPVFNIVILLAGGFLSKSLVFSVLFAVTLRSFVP
UniProt Q9NP99, 21-205 limits assumed, form in doubt: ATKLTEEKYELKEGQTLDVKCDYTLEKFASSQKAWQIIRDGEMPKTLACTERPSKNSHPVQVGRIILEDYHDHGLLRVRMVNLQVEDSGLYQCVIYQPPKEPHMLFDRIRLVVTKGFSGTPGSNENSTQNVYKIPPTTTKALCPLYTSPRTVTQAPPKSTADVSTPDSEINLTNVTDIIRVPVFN

T2: mouse TREM1 on CHO cells (mouse, UniProt Q9JKE2 21-230)
T2 construct: also called CHO-mT1
T2 sequence: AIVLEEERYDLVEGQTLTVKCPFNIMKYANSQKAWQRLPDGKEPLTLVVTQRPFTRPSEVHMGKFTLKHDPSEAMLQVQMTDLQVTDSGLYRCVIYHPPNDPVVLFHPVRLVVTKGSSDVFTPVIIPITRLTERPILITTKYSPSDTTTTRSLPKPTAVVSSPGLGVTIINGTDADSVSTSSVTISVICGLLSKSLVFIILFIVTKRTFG

T3: human TREM2 on BWZ cells (human, UniProt Q9NZC2 19-230)
T3 construct: whole, on cells; not tied to the cell line; also called BWZ Human TREM2
T3 sequence (looked up): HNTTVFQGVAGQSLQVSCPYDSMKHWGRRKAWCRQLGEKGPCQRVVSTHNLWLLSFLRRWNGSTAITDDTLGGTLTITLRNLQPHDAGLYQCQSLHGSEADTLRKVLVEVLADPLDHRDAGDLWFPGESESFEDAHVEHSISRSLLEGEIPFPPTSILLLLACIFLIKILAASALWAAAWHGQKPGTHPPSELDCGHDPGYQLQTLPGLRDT

B1: T1-52 (antibody, IgG1, V domains shown)
VH: QVQLVQSGAEVKKPGSSVKVSCKASGGTFSSYAISWVRQAPGQGLEWMGSIIPIFGTANYAQKFQGRVTITADESTSTAYMELSSLRSEDTAVYYCARDRGQYSSSWYGRMDVWGQGTTVTVSS
VL: DIQMTQSPSTLSASVGDRVTITCRASQSISSWLAWYQQKPGKAPKLLIYKASSLESGVPSRFSGSGSGTEFTLTISSLQPDDFATYYCQQSSADSPFTFGGGTKVEIK
notes: huIgG1; also called TI-52; ADI-19127
B2: T1-76 (antibody, IgG1, V domains shown)
VH: not shown
VL: DIQMTQSPSTLSASVGDRVTITCRASQSISSWLAWYQQKPGKAPKLLIYDASSLESGVPSRFSGSGSGTEFTLTISSLQPDDFATYYCQQHSTYSWTFGGGTKVEIK
notes: huIgG1; also called TI-76; ADI-19153
B3: T1-56 (antibody, IgG1, V domains shown)
VH: EVQLVESGGGLVQPGRSLRLSCAASGFTFDDYAMHWVRQAPGKGLEWVSGISWNSGSIGYADSVKGRFTISRDNAKNSLYLQMNSLRAEDTALYYCAKGPRLLGYFDLWGRGTLVTVSS
VL: not shown
notes: huIgG1; also called TI-56; ADI-19131
B4: T1-57 (antibody, IgG1, V domains shown)
VH: EVQLVESGGGLVQPGRSLRLSCAASGFTFDDYAMHWVRQAPGKGLEWVSGITWNSGSIGYADSVKGRFTISRDNAKNSLYLQMNSLRAEDTALYYCAKGPRYSKPYFDYWGQGTLVTVSS
VL: DIQMTQSPSSVSASVGDRVTITCRASQGIDSWLAWYQQKPGKAPKLLIYAASSLQSGVPSRFSGSGSGTDFTLTISSLQPEDFATYYCQQRAVFPPTFGGGTKVEIK
notes: huIgG1; also called TI-57; ADI-19132
B5: T1-77 (antibody, IgG1, V domains shown)
VH: QVQLQESGPGLVKPSETLSLTCAVSGYSISSGYYWAWIRQPPGKGLEWIGSIYHSGSTYYNPSLKSRVTISVDTSKNQFSLKLSSVTAADTAVYYCARGGPYPWSGWFDPWGQGTLVTVSS
VL: EIVMTQSPATLSVSPGERATLSCRASQSVGSNLAWYQQKPGQAPRLLIYGASTRATGIPARFSGSGSGTEFTLTISSLQSEDFAVYYCQQHDVWPYTFGGGTKVEIK
notes: huIgG1; also called TI-77; ADI-19154
B6: recombinant, His-tagged mouse PGLYRP1 (ligand, UniProt O88593 19-182, looked up)
chain: FIVPRSEWRALPSECSSRLGHPVRYVVISHTAGSFCNSPDSCEQQARNVQHYHKNELGWCDVAYNFLIGEDGHVYEGRGWNIKGDHTGPIWNPMSIGITFMGNFMDRVPAKRALRAALNLLECGVSRGFLRSNYEVKGHRDVQSTLSPGDQLYQVIQSWEHYRE
notes: also called mPGLYRP1; not shown: His tag
B7: T1-58 (antibody, IgG1, V domains shown)
VH: QLQLQESGPGLVKPSETLSLTCTVSGGSISSSSYYWGWIRQPPGKGLEWIGSIYYSGSTYYNPSLKSRVTISVDTSKNQFSLKLSSVTAADTAVYYCARQEYGDGYFDLWGRGTLVTVSS
VL: not shown
notes: huIgG1; also called TI-58; ADI-19133

How the values were obtained:
[1] = biological target: T4, human TREM1 on cells (human, UniProt Q9NP99 21-234); assay: FACS, CHO human TREM1
T4 construct: Some reporter cells carry a human TREM1/CD3 zeta fusion instead; also called CHO-huT1; CHO-hT1

[2] = biological target: T4, human TREM1 on cells; assay: cell-based or functional assay
[3] = biological target: T4, human TREM1 on cells; assay: FACS ligand blocking on CHO-huTREM1, 10 ug/mL IgG; competitor hPGLYRP1/PGN-BS
[4] = biological target: T1, mouse TREM2 on BWZ cells; assay: FACS, BWZ mouse TREM2
[5] = biological target: human TREM1 (human, UniProt Q9NP99 21-205, limits assumed); assay: IgG, monovalent; method and antigen form not stated
[6] = biological target: T4, human TREM1 on cells; assay: FACS, human neutrophils
[7] = biological target: T2, mouse TREM1 on CHO cells; assay: FACS, CHO mouse TREM1
[8] = biological target: T3, human TREM2 on BWZ cells; assay: FACS, BWZ human TREM2
[9] = biological target: T4, human TREM1 on cells; assay: FACS contour plots on CHO-huTREM1, anti-HIS PE against HuTREM1-GFP
[10] = biological target: T1, mouse TREM2 on BWZ cells; assay: FACS, BWZ cells

Binder | FOB Fold Over Background [1] | GFP expression, NFAT-GFP reporter cells expressing human TREM1, soluble antibody [2] | % ligand binding blocked [3] | FOB Fold Over Background [4] | Kd [5] | koff [5] | kon [5] | FOB Fold Over Background [6] | FOB Fold Over Background [7] | FOB Fold Over Background [8] | cell surface levels of TREM1, primary human neutrophils, FACS [2] | binding result [9] | binding result [10]
B1 | 475 fold | ~3 fold | ≥ 85% | 1.2 fold | 56.6 nM | 0.024 s⁻¹ | 423000 M⁻¹ s⁻¹ | 4.2 fold | 3.2 fold | 1 fold |  |  | 
B2 | 516 fold | ≥ 3 fold | ≥ 85% | 1.2 fold | 39.4 nM | 0.023 s⁻¹ | 583000 M⁻¹ s⁻¹ | 3.2 fold | 1 fold | 0.9 fold | ≥ 65% |  | 
B3 | 432 fold |  | ≥ 85% | 1.3 fold | 14 nM | 0.014 s⁻¹ | 998000 M⁻¹ s⁻¹ | 6.8 fold | 1.1 fold | 1.2 fold | ≥ 65% |  | 
B4 | 456 fold |  | ≥ 85% | 1.3 fold |  |  |  | 4.4 fold | 1.7 fold | 0.9 fold | ≥ 65% |  | 
B5 | 444 fold |  | ≥ 85% | 1.1 fold |  |  |  | 2.4 fold | 0.8 fold | 0.9 fold | ≥ 65% |  | 
B6 |  |  |  |  |  |  |  |  |  |  |  | no binding | 
B7 | 418 fold |  | ≥ 50% | 1.2 fold | 25.1 nM | 0.00374 s⁻¹ | 149000 M⁻¹ s⁻¹ | 2.6 fold | 1.6 fold | 1 fold |  |  | no binding

Source: US11472877 (Alector, dated 2022)
